The test concerns the target Interstitial collagenase (Homo sapiens, UniProt P03956). The following applies: pH 7.5.

Amino acid sequences for entries named in this document (tags omitted). Residues count along the entry.
UniProt P03956, 100-469 limits assumed: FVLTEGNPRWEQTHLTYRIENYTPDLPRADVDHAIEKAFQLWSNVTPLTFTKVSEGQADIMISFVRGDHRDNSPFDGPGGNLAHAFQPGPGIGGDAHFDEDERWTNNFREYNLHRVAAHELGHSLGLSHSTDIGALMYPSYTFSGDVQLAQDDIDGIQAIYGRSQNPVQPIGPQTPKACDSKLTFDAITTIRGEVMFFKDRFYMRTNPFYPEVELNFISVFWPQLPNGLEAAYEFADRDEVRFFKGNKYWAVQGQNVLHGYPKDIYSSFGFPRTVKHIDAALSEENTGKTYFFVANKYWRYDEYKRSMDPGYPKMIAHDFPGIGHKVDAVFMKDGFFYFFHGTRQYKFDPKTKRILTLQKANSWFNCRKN

Consider `CCOP(=O)(O)N[C@@H](CC(C)C)C(=O)O`, for which the Ki (in general, a measure of affinity in units of concentration, obtained from inhibition or displacement) is 950 µM.

`CCOP(=O)(O)N[C@H](C(=O)O)[C@@H](C)CC` yielded a Ki of 990 µM.

The values above are taken from BindingDB's records for 2153207.
